The results in this text go back to patent US4237139A, “4-(3-(4-Quinolyl)propyl)piperidines, their preparation and their use as medicines” (Pharmindustrie, priority 1976, dated 1980).

In the series the test system is ventricular arrhythmia caused by aconitine. Briefly: Antiarythmic activity, aconitine test in rats. As to conditions: LD 50/ED 50.

Molecules are shown by their SMILES.

As to `C=C[C@H]1CNCC[C@H]1CCCc1ccnc2ccc(OC)cc12` [Example 1, 4(R)-[3-(6-methoxy 4-quinolyl)propyl] 3(R)-vinyl piperidine], the “therapeutic index compared with quinidine and disopyramide, in words” value is “therapeutic index higher than that of quinidine and disopyramide”.
